Reference: patent US4767764A, “Alkoxyalkyl and alkylmercaptoalkyl substituted bridged benzofuroisoquinolines having opioid antagonist and/or appetite-controlling properties” (E. I. Du Pont de Nemours and Company, priority 1986, dated 1988)

Protein sequences, listed by entry. Tags and fused reporters are not part of them.
UniProt P33534, whole entry: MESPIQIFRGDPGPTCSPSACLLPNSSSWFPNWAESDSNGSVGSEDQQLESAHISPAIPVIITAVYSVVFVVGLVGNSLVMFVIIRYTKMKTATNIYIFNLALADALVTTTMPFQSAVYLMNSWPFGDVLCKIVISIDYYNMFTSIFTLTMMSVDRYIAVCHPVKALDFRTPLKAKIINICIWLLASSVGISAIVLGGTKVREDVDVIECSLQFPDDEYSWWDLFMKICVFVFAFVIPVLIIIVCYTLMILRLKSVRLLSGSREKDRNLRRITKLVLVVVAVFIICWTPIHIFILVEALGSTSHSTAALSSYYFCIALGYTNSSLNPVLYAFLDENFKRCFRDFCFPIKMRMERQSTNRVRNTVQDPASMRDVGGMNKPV
UniProt P42866, whole entry: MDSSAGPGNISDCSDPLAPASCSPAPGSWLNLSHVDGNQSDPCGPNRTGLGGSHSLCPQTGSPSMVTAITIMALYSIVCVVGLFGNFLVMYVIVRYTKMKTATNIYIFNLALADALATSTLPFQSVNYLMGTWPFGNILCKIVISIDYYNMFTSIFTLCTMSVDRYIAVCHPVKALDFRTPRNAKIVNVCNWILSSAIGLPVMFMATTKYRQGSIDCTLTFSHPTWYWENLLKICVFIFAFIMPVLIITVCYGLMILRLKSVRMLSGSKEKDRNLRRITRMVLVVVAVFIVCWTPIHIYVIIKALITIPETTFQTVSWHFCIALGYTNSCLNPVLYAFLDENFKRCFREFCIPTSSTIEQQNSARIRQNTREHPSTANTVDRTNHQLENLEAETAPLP

What was measured:
[1] = target: kappa opioid receptor (U-50,488H analgesia) (Mus musculus, UniProt P33534); test: antagonism of U-50,488H analgesia in PQW test (kappa antagonist potency); type: in vivo, mouse (male CF1); conditions: ratio of ED50 morphine / ED50 U-50,488H antagonism
mu receptor = mu receptor (Mus musculus, UniProt P42866); conditions: in vivo, sc

SMILES	kappa selectivity (morphine/U-50,488H antagonism) [1]	ED50 (mu receptor)
CCCN1CCC23c4cccc(O)c4OC2C2CCC3(C1)C(COC)C2 (stereo not shown) [Example 1, 5-Methoxymethyl-3-n-propyl-1,2,3,4,5,6,7,7a-octahydro-4a,7-ethanobenzofuro[3,2-e]isoquinolin-9-ol]	3.5 X	0.01 mg/kg
CCCN1CCC23c4cccc(O)c4OC2C2CCC3(C1)C(COCC)C2 (stereo not shown) [Example 2, 5-Ethoxymethyl-3-n-propyl-1,2,3,4,5,6,7,7a-octahydro-4a,7-ethanobenzofuro[3,2-e]isoquinolin-9-ol]	2.0 X	0.02 mg/kg
CCCOCC1CC2CCC13CN(CCC)CCC31c3cccc(O)c3OC21 (stereo not shown) [Example 3, 5-(n-Propoxymethyl)-3-n-propyl-1,2,3,4,5,6,7,7a-octahydro-4a,7-ethanobenzofuro[3,2-e]isoquinolin-9-ol]	2.4 X	0.06 mg/kg
CCCOCC1CC2C=CC13CN(CCC)CCC31c3cccc(O)c3OC21 (stereo not shown) [Example 4, 5-(n-propoxymethyl)-3-n-propyl-1,2,3,4,5,6,7,7a-octahydro-4a,7-ethenobenzofuro[3,2-e]isoquinolin-9-ol]	3.8 X	0.15 mg/kg
CCCN1CCC23c4cccc(O)c4OC2C2CCC3(C1)C(CSC)C2 (stereo not shown) [Example 5, 5-methylthiomethyl-3-n-propyl-1,2,3,4,5,6,7,7a-octahydro-4a,7-ethanobenzofuro[3,2-e]isoquinolin-9-ol]	1.6 X	0.04 mg/kg
